pIC50: −log10 of the molar value.

Protein sequences, listed by entry. Tags and fused reporters are not part of them.
UniProt P31153, whole entry: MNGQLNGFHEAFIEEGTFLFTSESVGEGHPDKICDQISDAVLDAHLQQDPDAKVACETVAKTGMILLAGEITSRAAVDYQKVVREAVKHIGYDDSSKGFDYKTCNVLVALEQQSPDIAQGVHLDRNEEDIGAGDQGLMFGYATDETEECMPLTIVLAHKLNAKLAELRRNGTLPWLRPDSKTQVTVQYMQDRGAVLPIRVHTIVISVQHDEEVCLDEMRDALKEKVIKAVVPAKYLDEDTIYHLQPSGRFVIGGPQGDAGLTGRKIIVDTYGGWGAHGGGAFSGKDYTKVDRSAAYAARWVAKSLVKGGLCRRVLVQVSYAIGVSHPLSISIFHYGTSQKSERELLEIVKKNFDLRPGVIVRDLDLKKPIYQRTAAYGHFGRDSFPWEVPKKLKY

The target in the assay is hMAT2A (Homo sapiens (Human), UniProt P31153). Nature of the assay: Phosphate Sensor Fluorescence Assay (MAT2A enzyme inhibition). It is filed as biochemical. As to conditions: read-out: IC50 um, L-methionine and ATP 500 uM, class symbols.

Regarding `CC(CO)Nc1nc(=O)n(-c2ccccc2Cl)c2nc(C(F)(F)F)ccc12` (single isomer, unassigned) [one of 273 and 292], the negative-log IC50 (pIC50) (usually the IC50 on a negative log10 scale, so that one unit is a factor of ten) is 5.00 to 6.00.
